Consider one compound from ChEMBL document CHEMBL1177640 (Bioorg Med Chem, 2010).

The nature of this data set: Permeability in buffer of pH 7.4 by PAMPA. In kind it is ADME. The settings on record: read-out: permeability. In a few lines:
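Double-Sink PAMPA: DMSO stock diluted 200-fold into system solution buffer pH 7.4 in the donor plate, with acceptor sink buffer pH 7.4. Incubated 0.5 h at room temperature with stirring. Donor and acceptor concentrations measured by UV (230–500 nm), triplicates.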

Consider `NC(=O)N1c2ccccc2C=Cc2ccccc21` [CARBAMAZEPINE], for which the Papp came out at 19.9 ×10⁻⁶ cm/s.
